Data from patent US20260042762A1 (Kymera Therapeutics, Inc., priority 2018, published 2026).

What was measured:
MerTK [1] = molecular target: T1, MerTK (Mus musculus, UniProt Q60805); experiment: MerTK degradation in RAW264 cells (Western blot); type: cell-based; details: RAW264.7, 4 h, read-out: RAW264 Max % MerTK Degradation
T1 construct: endogenous in cells; host or cells: RAW264 cells
T1 sequence (Q60805 19-994): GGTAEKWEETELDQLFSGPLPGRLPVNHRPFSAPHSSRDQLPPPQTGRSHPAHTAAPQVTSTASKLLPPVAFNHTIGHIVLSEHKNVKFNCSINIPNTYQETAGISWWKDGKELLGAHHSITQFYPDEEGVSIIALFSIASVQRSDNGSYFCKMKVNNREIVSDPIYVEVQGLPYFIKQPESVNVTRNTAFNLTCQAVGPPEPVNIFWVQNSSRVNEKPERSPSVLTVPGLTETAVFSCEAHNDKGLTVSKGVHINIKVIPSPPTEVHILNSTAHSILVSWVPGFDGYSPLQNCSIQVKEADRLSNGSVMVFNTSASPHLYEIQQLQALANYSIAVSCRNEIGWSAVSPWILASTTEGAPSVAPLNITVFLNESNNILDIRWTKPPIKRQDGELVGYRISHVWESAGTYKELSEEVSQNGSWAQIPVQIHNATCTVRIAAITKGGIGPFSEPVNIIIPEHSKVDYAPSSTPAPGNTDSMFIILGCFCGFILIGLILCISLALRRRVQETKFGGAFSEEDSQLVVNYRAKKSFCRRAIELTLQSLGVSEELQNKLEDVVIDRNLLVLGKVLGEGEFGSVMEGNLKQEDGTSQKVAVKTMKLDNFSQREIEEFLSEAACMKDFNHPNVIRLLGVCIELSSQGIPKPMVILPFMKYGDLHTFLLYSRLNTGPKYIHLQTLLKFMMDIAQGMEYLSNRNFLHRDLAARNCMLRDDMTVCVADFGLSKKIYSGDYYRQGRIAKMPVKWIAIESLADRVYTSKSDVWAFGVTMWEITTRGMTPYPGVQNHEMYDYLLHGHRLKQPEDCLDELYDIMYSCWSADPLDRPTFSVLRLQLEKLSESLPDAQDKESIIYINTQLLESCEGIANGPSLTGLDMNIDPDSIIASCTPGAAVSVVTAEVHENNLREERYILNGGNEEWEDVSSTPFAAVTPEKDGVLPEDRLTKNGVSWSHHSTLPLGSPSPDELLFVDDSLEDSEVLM
Procedure: Compounds were reconstituted in DMSO to make 10 mM stock solutions. RAW264 cells were maintained in DMEM medium containing 10% FBS. Cells were seeded into 6-well plates with 2×10^6 cells per well. 2 μL of diluted compounds were added to cells to the final concentration of 0.001-1 μM. After a 4 hour-incubation at 37° C., cells were washed with DPBS (1×) once. Then RIPA lysis buffer with Halt Protease and Phosphatase Inhibitor Cocktail was added directly to the cells and cells were then incubated on ice for 10 min, then lysate was harvested into 1.5 mL Eppendorf tubes and centrifuged at 14,000 rpm for 10 min at 4° C. and the supernatants were collected for Western blots.
(§1) The protein concentration of cell lysates was quantified with Pierce™ BCA Protein Assay Kit. […] BCA working reagents were prepared by mixing BCA reagent A with reagent B in 50: 1 ratio. 200 μL of the BCA working reagents were added to 25 μL of BCA standard or cell lysates in microplate, and mixed thoroughly on a plate shaker for 30 seconds. After incubation at 37° C. for 30 min, the absorbance of samples at 562 nm were measured with EnVision Plate Reader.
Protein lysates were prepared in NuPAGE™ LDS sample buffer and NuPAGE™ sample reducing agent, and incubated at 95° C. for 5 min. […] The proteins were transferred to low fluorescence PVDF membranes using the Trans-Blot Turbo Transfer System. Membranes were then blocked in Odyssey blocking buffer at RT for 1 h followed by primary incubation at 4° C. overnight. The primary antibodies were MerTK goat polyclonal antibody and actin mouse monoclonal antibody. Membranes were washed three times with TBST (1×), and then incubated with IR Dye 800 CW Donkey anti-goat and IR Dye 700 CW Goat anti-mouse secondary antibodies in 1:10,000 dilution at RT for 1 h. The Western blot images were obtained using Odyssey Imaging System.

MerTK [2] = molecular target: T2, MerTK (Homo sapiens, UniProt Q12866); experiment: MerTk degradation in Jurkat cells (Western blot); type: cell-based; details: 0.001-1 μM, 4 hour-incubation at 37° C., read-out: Jurkat Max % MerTK Degradation
T2 construct: endogenous in cells; host or cells: Jurkat cells
T2 sequence (Q12866 21-999): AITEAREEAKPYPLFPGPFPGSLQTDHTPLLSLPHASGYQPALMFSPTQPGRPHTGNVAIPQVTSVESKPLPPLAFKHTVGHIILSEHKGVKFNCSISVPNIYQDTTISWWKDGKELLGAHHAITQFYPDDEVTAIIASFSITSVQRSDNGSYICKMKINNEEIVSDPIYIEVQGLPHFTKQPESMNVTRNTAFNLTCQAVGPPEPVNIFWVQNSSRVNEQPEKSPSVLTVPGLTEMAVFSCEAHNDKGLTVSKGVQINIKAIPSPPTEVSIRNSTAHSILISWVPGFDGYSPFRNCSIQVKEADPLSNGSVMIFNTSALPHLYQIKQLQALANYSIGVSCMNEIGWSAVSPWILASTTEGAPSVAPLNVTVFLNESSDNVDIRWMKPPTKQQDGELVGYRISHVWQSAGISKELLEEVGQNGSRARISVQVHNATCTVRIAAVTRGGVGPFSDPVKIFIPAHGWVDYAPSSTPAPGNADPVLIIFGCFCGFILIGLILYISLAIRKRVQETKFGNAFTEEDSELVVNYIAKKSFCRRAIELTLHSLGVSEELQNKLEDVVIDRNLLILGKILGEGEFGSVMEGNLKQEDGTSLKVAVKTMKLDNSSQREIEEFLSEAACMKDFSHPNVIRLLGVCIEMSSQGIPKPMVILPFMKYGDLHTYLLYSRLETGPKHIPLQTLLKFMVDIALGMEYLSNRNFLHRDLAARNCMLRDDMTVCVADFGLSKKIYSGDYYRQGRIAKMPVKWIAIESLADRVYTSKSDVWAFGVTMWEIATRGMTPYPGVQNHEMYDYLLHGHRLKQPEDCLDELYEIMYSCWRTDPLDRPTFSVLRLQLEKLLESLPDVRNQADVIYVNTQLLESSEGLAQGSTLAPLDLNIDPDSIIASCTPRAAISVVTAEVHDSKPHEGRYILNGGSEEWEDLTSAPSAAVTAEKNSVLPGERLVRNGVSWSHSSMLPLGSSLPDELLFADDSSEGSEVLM
Procedure: Compounds were reconstituted in DMSO to make 10 mM stock solutions. […] Cells were seeded into 6-well plates with about 5×10^6 cells per well. 2 μL of diluted compounds were added to cells to the final concentration of 0.001-1 μM. After a 4 hour-incubation at 37° C., cells were collected into 2 mL Eppendorf tubes and centrifuged at 1,000 rpm for 5 min. The cell pellets were washed with DPBS (1×) once and resuspended in 60 μL RIPA lysis buffer with Halt Protease and Phophatase Inhibitor Cocktail. The cells were lysed on ice for 10 min, then centrifuged at 14,000 rpm for 10 min at 4° C. and the supernatants were collected for western blots.
as §1
Protein lysates were prepared in NuPAGE™ LDS sample buffer and NuPAGE™ sample reducing agent, and incubated at 95° C. for 5 min. […] The proteins were transferred to low fluorescence PVDF membranes using the Trans-Blot Turbo Transfer System. […]

Row | Structure (SMILES) | Dmax (MerTK [1]) | Dmax (MerTK [2])
1 | CCCCNc1ncc2c(-c3ccc(CNCCCOCCCOCCCc4ccc5c(c4)n(C)c(=O)n5C4CCC(=O)NC4=O)cc3)cn([C@H]3CC[C@H](O)CC3)c2n1 (stereo partly drawn) [I-7, Trans-3-[5-[3-(3-[3-[([4-[2-(butylamino)-7-[4-hydroxycyclohexyl]-7H-pyrrolo[2,3-d]pyrimidin-5-yl]phenyl]methyl)amino]propoxy]propoxy)propyl]-3-methyl-2-oxo-2,3-dihydro-1H-1,3-benzodiazol-1-yl]piperidine-2,6-dione formic acid] | > 50% | –
2 | CCCCNc1ncc2c(-c3ccc(CN4CCN(CCCC(=O)NCCCOCCCOCCCc5ccc6c(c5)n(C)c(=O)n6C5CCC(=O)NC5=O)CC4)cc3)cn([C@H]3CC[C@H](O)CC3)c2n1 (stereo partly drawn) [I-9, Trans-4-[4-([4-[2-(butylamino)-7-[4-hydroxycyclohexyl]-7H-pyrrolo[2,3-d]pyrimidin-5-yl]phenyl]methyl)piperazin-1-yl]-N-[3-(3-[3-[1-(2,6-dioxopiperidin-3-yl)-3-methyl-2-oxo-2,3-dihydro-1H-1,3-benzodiazol-5-yl]propoxy]propoxy)propyl]butanamide bis(formic acid)] | > 50% | –
3 | CCCCNc1ncc2c(-c3ccc(S(=O)(=O)N4CCN(C(=O)NCCCOCCCOCCCc5ccc6c(c5)n(C)c(=O)n6C5CCC(=O)NC5=O)CC4)cc3)nn([C@H]3CC[C@H](O)CC3)c2n1 (stereo partly drawn) [I-24, 4-((4-(6-(Butylamino)-1-(trans-4-hydroxycyclohexyl)-1H-pyrazolo[3,4-d]pyrimidin-3-yl)phenyl)sulfonyl)-N-(3-(3-(3-(1-(2,6-dioxopiperidin-3-yl)-3-methyl-2-oxo-2,3-dihydro-1H-benzo[d]imidazol-5-yl)propoxy)propoxy)propyl)piperazine-1-carboxamide] | > 50% | –
4 | CN1CCN(Cc2ccc(-c3cn([C@H]4CC[C@H](O)CC4)c4nc(NCCC(F)(F)F)ncc34)cc2)CC1 [I-148, Trans-4-(5-[4-[(4-methylpiperazin-1-yl)methyl]phenyl]-2-[(3,3,3-trifluoropropyl)amino]pyrrolo[2,3-d]pyrimidin-7-yl)cyclohexan-1-ol; formic acid] | – | < 20%
